Experimental data as given in patent publication US11365195B2, “Atypical inhibitors of monoamine transporters; method of making; and use thereof” (THE UNITED STATES OF AMERICA, AS REPRESENTED BY THE …, priority 2017, dated 2022).

Sequences of proteins named here, by UniProt entry; tags and fusion partners are left off.
UniProt P23977, whole entry: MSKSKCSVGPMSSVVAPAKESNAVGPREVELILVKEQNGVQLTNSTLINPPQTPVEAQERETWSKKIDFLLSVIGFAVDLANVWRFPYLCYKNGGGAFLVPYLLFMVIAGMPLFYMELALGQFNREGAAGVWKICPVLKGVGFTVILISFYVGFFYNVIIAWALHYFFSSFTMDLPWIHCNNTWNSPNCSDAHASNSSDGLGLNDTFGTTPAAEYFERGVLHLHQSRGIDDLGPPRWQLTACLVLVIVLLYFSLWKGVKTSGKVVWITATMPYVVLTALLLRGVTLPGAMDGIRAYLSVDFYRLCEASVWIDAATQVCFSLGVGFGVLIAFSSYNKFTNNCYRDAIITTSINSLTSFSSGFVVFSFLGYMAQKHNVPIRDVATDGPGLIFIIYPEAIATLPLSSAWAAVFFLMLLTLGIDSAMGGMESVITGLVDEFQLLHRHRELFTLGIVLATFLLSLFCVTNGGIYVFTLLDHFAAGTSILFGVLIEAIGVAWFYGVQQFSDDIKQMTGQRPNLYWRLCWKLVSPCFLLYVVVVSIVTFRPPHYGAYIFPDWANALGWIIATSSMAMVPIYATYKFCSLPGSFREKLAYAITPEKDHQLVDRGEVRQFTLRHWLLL
UniProt Q60492, whole entry: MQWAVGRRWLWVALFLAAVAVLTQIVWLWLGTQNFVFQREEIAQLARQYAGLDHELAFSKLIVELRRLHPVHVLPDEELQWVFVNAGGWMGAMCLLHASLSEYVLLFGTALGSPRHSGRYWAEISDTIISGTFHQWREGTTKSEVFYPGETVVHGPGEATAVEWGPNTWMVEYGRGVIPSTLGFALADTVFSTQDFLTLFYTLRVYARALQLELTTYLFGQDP
UniProt P31652, whole entry: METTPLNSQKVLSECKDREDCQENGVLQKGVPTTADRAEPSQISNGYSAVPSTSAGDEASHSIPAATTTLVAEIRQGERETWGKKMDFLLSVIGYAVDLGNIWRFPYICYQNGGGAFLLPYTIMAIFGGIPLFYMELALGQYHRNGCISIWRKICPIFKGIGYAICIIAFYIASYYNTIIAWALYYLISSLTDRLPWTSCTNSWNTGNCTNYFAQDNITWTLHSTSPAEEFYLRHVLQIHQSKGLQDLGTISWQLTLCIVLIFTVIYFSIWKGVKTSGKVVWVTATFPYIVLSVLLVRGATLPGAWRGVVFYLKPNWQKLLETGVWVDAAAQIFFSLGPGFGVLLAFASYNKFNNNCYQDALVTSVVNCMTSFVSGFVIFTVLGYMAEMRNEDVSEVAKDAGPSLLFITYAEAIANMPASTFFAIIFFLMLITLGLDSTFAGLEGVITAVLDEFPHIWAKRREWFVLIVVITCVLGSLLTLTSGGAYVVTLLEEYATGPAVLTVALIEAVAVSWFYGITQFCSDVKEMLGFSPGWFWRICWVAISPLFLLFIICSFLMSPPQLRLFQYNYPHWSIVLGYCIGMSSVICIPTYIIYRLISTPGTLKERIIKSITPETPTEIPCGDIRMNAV

Columns and labels:
DAT = DAT (Rattus norvegicus, UniProt P23977); test: DAT radioligand binding in rat striatum ([3H]-WIN35,428 competition); settings: ratio of SERT Ki to DAT Ki; tested form: dihydrochloride monohydrate
σ1R = σ1R (Cavia porcellus, UniProt Q60492); test: σ1R radioligand binding in guinea pig cortex ([3H]-(+)-Pentazocine competition); settings: tested form: dihydrochloride monohydrate
SERT = SERT (Rattus norvegicus, UniProt P31652); test: SERT radioligand binding in rat midbrain ([3H]-Citalopram competition); settings: read-out: SERT (rat mid-brain-stem) Ki ± SEM, rat midbrain/brain stem membranes, mean ± SEM, tested form: dihydrochloride monohydrate

Question: With `Fc1ccc(C(SCCNC2CCN(Cc3cc4ccccc4o3)CC2)c2ccc(F)cc2)cc1` as the compound, how does the SERT/DAT (DAT) read?
Answer: Its SERT/DAT is 5.76.

Question: And the σ1/DAT (σ1R; ratio of σ1 to DAT affinity values)?
Answer: The σ1/DAT was 1.71.

Question: What about the σ1/SERT (σ1R; ratio of σ1 to SERT affinity values) of the same compound?
Answer: The σ1/SERT was 0.30.

Question: And the Kd (σ1R; read-out: σ1 (Guinea Pig Cortex) Kd ± SEM, guinea pig cortex membranes, [3H]-(+)-Pentazocine, mean ± SEM)?
Answer: The Kd was 205 nM.

Question: And the Ki (SERT)?
Answer: Its Ki is 691 nM.
